Values of other authors as cited in patent publication US6254883A, “Composition for transdermal delivery of drugs” (Novagent Oy, priority 1996, dated 2001).

Settings: in vivo, cited from earlier work

For `Nc1c2c(nc3ccccc13)CCCC2` [tacrine, 9-amino-1,2,3,4-tetrahydroacridine], the “Clearance CL” value (human) is listed as 150 L/h and the “clearance from the systemic circulation (in words)” value is listed as “rapidly cleared from the systemic circulation”.
